## Ab-14 light chain CDR variants: yeast mating affinities

All variants were tested on one target, the spike HR2 peptide PDVDLGDISGINAS (SARS-CoV-2).

Parent: Ab-14, a human scFv built as VH, a (GGGGS)3 linker, VL. Only the CDRs of the light chain vary.
VH: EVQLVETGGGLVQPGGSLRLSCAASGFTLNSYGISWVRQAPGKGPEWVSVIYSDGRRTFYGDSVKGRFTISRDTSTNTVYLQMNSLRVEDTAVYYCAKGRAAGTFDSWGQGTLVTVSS
VL: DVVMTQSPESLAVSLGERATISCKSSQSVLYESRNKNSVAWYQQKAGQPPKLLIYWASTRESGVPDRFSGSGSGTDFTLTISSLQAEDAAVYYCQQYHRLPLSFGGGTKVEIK

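The parent was found by panning a naive human phage display library on the peptide. The variants were designed computationally from a first round of random CDR variants and then made and measured. Group labels follow the data file (En: ensemble of fine-tuned language models; GP: Gaussian process model; HC: hill climbing; Gen: genetic algorithm; Gibbs: Gibbs sampling; a sequence that several methods proposed may carry one label only). In AlphaSeq, yeast of one mating type display the scFv and yeast of the other type display the target. After mating in shaken culture at 30 °C for 16 h, diploids were selected and their barcode pairs sequenced. A regression on co-assayed BCL2-family reference pairs converts the normalised counts of each replicate to an apparent Kd. Mating was done six times.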

The parent's light chain CDRs are KSSQSVLYESRNKNSVA, WASTRES, QQYHRLPLS; each variant's own CDRs replace them letter for letter.
Variants here have more than six changes.
The read-out is the apparent dissociation constant on a log10 scale (nM): the lower, the stronger.
Averages over replicates are reported, and they cover detected replicates only.
An entry "no signal" has no value in the source: the pair was not observed among the diploids in any replicate. This suggests poor binding but is not conclusive.
The authors averaged sequences with at least three values out of six and counted those with two or fewer as poor binders.
The parent sequence was in this pool as ten entries: three were never detected, three once, and four in most replicates, with averages from 0.34 to 2.37.
Background: pairings of all light chain designs with three empty control strains gave a value in 4% of cases (median 2.64, 5th percentile 1.59). Values in that range, when seen in few replicates, are hard to tell from nonspecific mating. Also given: how often the same scFv was detected with the empty control strains.
A sequence measured in both rounds can read differently, since the two assays cover different ranges.

For KIGGVTNGISRGKNSVA | EQSTRED | QQYNRLPLS [En_HC], the assay gave 0.29 (6 of 6 replicates; controls 2 of 18).
For KLTQTMRFEQKSKNNIA | EVTTRSK | QQYDRLPLS [En_Gen], the assay gave 1.44 (5 of 6 replicates; controls 0 of 18).
For NIVGRVEDKQTETANIA | DAELRAG | QQYSRLPLS [En_Gibbs], the assay gave 0.71 (6 of 6 replicates; controls 1 of 18).
For TVSQVHEMLSHTKNSVA | DMNTRES | QQYDRLPLS [En_HC], the assay gave 1.10 (5 of 6 replicates; controls 0 of 18).
For MVSQLMIWGLHAKNSIA | EAQMRLN | QQYDRLPLF [En_Gen], the assay gave 2.24 (4 of 6 replicates; controls 1 of 18).
For HMMSGSVEQWNIENAVA | EMSEVYR | QQYVSLPLS [En_Gibbs], the assay gave no signal (0 of 6 replicates; controls 0 of 18).
For KIGGVTNGISRNKNSVA | EQSTREN | QQYNRLPLS [En_HC], the assay gave 0.21 (6 of 6 replicates; controls 0 of 18).
For KLSQYVGGESRNKSSLA | DNNTRES | QQYERLPLS [En_HC], the assay gave 2.06 (6 of 6 replicates; controls 1 of 18).
For KISGSYLGESRNWNAVA | NASQREQ | QQYHRLPLS [GP_Gibbs], the assay gave 0.46 (6 of 6 replicates; controls 0 of 18).
For KISQMVRVGSTKNNSIA | EEETRAD | QQYHRLPLS [En_Gen], the assay gave 0.63 (6 of 6 replicates; controls 1 of 18).
For SLTSHEEESEGAEASVA | EASMLES | QQYHRLPLM [En_Gibbs], the assay gave no signal (0 of 6 replicates; controls 0 of 18).
For HMMMYSEMQNNIQNNIA | DAMTRVT | QQYQHLPLS [En_Gibbs], the assay gave 0.33 (6 of 6 replicates; controls 0 of 18).
For KVVQSVDYEPRNKQSVA | DASTRCS | QQYHRLPLS [GP_Gibbs], the assay gave 0.01 (6 of 6 replicates; controls 1 of 18).
For KLSSSFLYGDRMKNSVA | QASQRES | QQYHRLPLS [GP_Gibbs], the assay gave 0.44 (6 of 6 replicates; controls 0 of 18).
For MVTQMAMQGMTNKRSVA | NAETREY | QQYHRLPLI [En_Gen], the assay gave 0.51 (6 of 6 replicates; controls 2 of 18).
For IISQSFLGEYHNKNNVA | QTSERGS | QQYDRLPLS [En_HC], the assay gave -0.56 (6 of 6 replicates; controls 1 of 18).
For RIDAYPNMLGKNIESIA | EAALTLT | QQYARLPLS [En_Gibbs], the assay gave 1.16 (6 of 6 replicates; controls 2 of 18).
For MMSQVTGQGTRHRNNVA | QTETREP | QQYDRLPLM [En_Gen], the assay gave 0.82 (6 of 6 replicates; controls 0 of 18).
For KISQMQRVGSTHGNSIA | EEQTRAN | QQYHRLPLS [En_Gen], the assay gave 0.53 (6 of 6 replicates; controls 1 of 18).
For MMSQVTGSGTRLRNNVA | QTSQREP | QQYDRLPLI [En_Gen], the assay gave 1.07 (6 of 6 replicates; controls 1 of 18).
For KIMQSLNYSQFNVSNVA | GQETRER | QSYHRLPLS [En_HC], the assay gave 1.96 (6 of 6 replicates; controls 5 of 18).
For HVSSMLMAGGGIYNSVA | GNKVLER | QQYMRLPLM [En_Gibbs], the assay gave 0.81 (6 of 6 replicates; controls 1 of 18).
For KLRQSTGYESRNKDNIA | DNSTRGR | QQYHRLPLS [En_HC], the assay gave 3.49 (2 of 6 replicates; controls 0 of 18).
For KIGDVLNQLMHKKNNVA | DLVTREN | QQYFRLPLS [En_Gen], the assay gave 1.41 (6 of 6 replicates; controls 2 of 18).
For MFSQLFMTGSRNYNSVA | QASTRES | QQYHRLPLI [En_HC], the assay gave 1.13 (6 of 6 replicates; controls 2 of 18).
For KVSPSVLYEDRNWNSVA | QASQRNS | QQYHRLPLS [GP_Gibbs], the assay gave -0.60 (6 of 6 replicates; controls 0 of 18).
For ILSQSVLMGSHLKNNVA | QASTRFN | QQYHRLPLS [En_HC], the assay gave 3.32 (1 of 6 replicates; controls 0 of 18).
For KLSMSMRFLTLEKNSIA | ELVTRMS | QQYHRLPLS [En_HC], the assay gave no signal (0 of 6 replicates; controls 0 of 18).
For KMRVSALQGIYRADSIA | STDIRVL | QQYHHLPLS [En_Gibbs], the assay gave 1.09 (6 of 6 replicates; controls 0 of 18).
For KLKELFAMWARAQGNVA | DATQRCT | QQYSRLPIT [En_Gibbs], the assay gave 0.54 (6 of 6 replicates; controls 0 of 18).
For MLGMTVMQGMVSRNNVA | QEETRAE | QQYHHLPLS [En_HC], the assay gave 0.95 (6 of 6 replicates; controls 1 of 18).
For HINTEWNHGANRDNNIA | EAQTVAA | QDYFRLPII [En_Gibbs], the assay gave 1.08 (6 of 6 replicates; controls 0 of 18).
For TISGVMQTSSHIKNNVA | EVSMRCK | QQYVRLPLA [En_Gen], the assay gave 1.42 (6 of 6 replicates; controls 1 of 18).
For KIGGVTNGISRNKNSVA | EQSTRED | QQYNRLPLF [En_HC], the assay gave 0.56 (6 of 6 replicates; controls 0 of 18).

2 of these entries, quoted again:

CDR-L1,CDR-L2,CDR-L3,group,"log10 Kd (nM), mean",detected,signal with controls
HVSSMLMAGGGIYNSVA,GNKVLER,QQYMRLPLM,En_Gibbs,0.81,6/6,1/18
KLSSSFLYGDRMKNSVA,QASQRES,QQYHRLPLS,GP_Gibbs,0.44,6/6,0/18

From the AlphaSeq antibody data of Li et al. 2023 (doi:10.1038/s41467-023-39022-2), copy in the FLAb collection.